The values below come from patent US8067590B2, “Pyridone derivates with MCH antagonistic activity and medicaments comprising these compounds” (Boehringer Ingelheim International GmbH, priority 2006, dated 2011).

The chains behind the UniProt entries cited, without tags or fusion partners.
UniProt Q99705, whole entry: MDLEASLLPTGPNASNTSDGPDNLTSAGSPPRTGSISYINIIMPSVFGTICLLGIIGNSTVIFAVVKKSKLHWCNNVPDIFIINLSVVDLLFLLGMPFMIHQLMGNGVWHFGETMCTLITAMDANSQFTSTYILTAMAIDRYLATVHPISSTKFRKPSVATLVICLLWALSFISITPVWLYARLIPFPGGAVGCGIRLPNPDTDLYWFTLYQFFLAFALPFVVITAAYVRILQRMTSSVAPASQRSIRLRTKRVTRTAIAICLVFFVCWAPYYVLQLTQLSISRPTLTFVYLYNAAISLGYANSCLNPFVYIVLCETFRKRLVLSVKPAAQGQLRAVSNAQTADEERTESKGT

By IC50 is commonly meant the concentration needed to halve the response being measured.

This assay has as its target hMCH-1R (Homo sapiens, UniProt Q99705). Description: MCH-1 receptor binding test (125I-MCH binding to membranes of hMCH-1R transfected CHO/Galpha16 cells). The following applies: read-out: IC50 value.

With `CN1CCc2ccc(C(=O)Cn3ncc(OCc4ccc(Br)cn4)cc3=O)cc2C1`, the IC50 stood at 0.018 µM.
The value for `O=c1cc(OCc2cccs2)ccn1CCc1ccc2c(c1)CCNCC2` was 0.012 µM; that for `O=C(Cn1ncc(OCc2ccc(Br)cn2)cc1=O)c1ccc2c(c1)CNCC2` was 0.017 µM; that for `CN1CCc2ccc(C(=O)Cn3ccc(OCc4ccccc4)cc3=O)cc2C1` was 0.018 µM.
In the case of `Cc1ccc(COc2ccn(CCc3ccc4c(c3)CCN(C)CC4)c(=O)c2)nc1` it was 0.04 µM; in that of `O=C(Cn1ccc(OCc2ccc(Br)cn2)cc1=O)c1ccc2c(c1)CNCC2`, 0.015 µM.
